Values quoted from earlier work in patent publication US11525155B2, “Stabilisation of biological samples” (QIAGEN GmbH, priority 2013, dated 2022).

Key:
[1] = target: T1, calpain II (Homo sapiens, UniProt P17655); conditions: cited from earlier work
T1 sequence (P17655 1-700): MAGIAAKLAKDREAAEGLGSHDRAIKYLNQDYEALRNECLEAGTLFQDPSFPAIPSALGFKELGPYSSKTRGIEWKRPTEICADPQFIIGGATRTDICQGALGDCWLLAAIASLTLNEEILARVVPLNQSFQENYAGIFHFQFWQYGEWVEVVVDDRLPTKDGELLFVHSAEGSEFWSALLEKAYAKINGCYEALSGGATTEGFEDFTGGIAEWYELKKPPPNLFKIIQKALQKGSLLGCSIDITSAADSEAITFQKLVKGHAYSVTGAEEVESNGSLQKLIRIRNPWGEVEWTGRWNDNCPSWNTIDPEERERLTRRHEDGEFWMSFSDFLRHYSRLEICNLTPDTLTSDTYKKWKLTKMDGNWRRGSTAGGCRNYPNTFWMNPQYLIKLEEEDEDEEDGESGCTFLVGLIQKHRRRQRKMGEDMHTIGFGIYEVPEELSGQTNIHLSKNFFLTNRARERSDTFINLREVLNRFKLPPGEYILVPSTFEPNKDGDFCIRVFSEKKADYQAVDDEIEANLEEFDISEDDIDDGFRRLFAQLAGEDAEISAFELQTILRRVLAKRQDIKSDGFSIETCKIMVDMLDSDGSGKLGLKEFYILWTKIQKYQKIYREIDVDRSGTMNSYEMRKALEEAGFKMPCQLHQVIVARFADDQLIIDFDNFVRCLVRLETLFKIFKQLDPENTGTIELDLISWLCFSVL
T1 sequence (P04632 1-268 partner): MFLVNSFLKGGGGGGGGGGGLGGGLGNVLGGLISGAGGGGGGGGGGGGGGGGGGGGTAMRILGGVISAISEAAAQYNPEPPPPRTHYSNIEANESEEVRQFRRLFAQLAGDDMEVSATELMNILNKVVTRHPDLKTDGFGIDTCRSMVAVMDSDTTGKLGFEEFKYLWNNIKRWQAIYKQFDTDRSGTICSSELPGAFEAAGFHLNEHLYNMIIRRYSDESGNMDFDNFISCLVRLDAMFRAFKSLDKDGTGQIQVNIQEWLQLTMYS

[2] = tested on: cells; conditions: even at extremely high concentrations; cited from earlier work

Row | Substance | Ki [1] [nM] | toxicity to cells [2]
1 | Z-Val-Phe-CHO [Calpain Inhibitor III] | 8 | –
2 | Quinoline-Val-Asp-CH2-OPH [Q-VD-OPh] | – | not toxic to cells
